The values that follow are results of earlier work, collected in publication PMC10269403 (Journal of medicinal chemistry, 2023).

SMILES strings stand for the structures.

The conditions of this data set: human, in vivo; cited from earlier work.

With `O=C1Nc2ccc(Cl)cc2[C@@](C#CC2CC2)(C(F)(F)F)O1` [EFV, efavirenz], the “median CSF levels” value was 35 to 90 nM.
